# Assay results: published antibiotic growth screens (doi:10.1038/s41589-023-01349-8)
# Some of the results follow.
# System: A. baumannii ATCC 17978
# Experiment: relative growth (fraction of control); higher = less inhibition
# Settings: 50 µM
row,SMILES,relative growth
1,CC(=O)Nc1c(I)cc(I)c(C(=O)O)c1I,1.05
2,CCCCC(CC)CCC(CC(C)C)OS(=O)(=O)[O-].[Na+] (stereo not drawn),1.21
3,Cc1cc2cc3c(C)cc(=O)oc3c(C)c2o1,1.19
4,CC(=O)Nc1nnc(S(N)(=O)=O)s1,1.01
5,O=C(Cc1ccccn1)NCC[C@@H]1CC[C@H](NC(=O)CN2CCOCC2)[C@@H](CO)O1,1.22
6,O=C(C[C@H]1CC[C@H]2[C@@H](COC[C@@H](O)CN2Cc2cc(F)ccc2F)O1)N[C@@H]1CCN(Cc2ccccc2)C1,1.03
7,Cc1ccccc1OCC(=O)NCC(=O)O,0.997
8,C[C@H]1CN([C@@H](C)CO)S(=O)(=O)c2ccc(C#CCN(C)C)cc2O[C@H]1CN(C)Cc1ccc(F)cc1,0.966
9,CC(=O)c1c(C)nn(CC(=O)O)c1C,0.866
10,COc1c(C)cccc1C(=O)N1CC[C@H](c2nn(CCN)c3ncccc23)C1,0.955
11,Cn1cnc(S(=O)(=O)N2C[C@H](O)COC[C@@H]3O[C@@H](CC(=O)N4CCN(c5ccccc5)CC4)CC[C@H]32)c1,1.08
12,O=C(C[C@H]1C=C[C@H](NS(=O)(=O)c2ccccc2)[C@H](CO)O1)NCc1ccncn1,1.14
13,CC(COc1ccccc1)N[C@H](C)[C@H](O)c1ccc(O)cc1.Cl (stereo partly drawn),0.801
14,O=C(CCCl)NCCc1ccccc1,1.04
15,O=C(C[C@H]1C[C@H]2c3cc(NS(=O)(=O)c4ccccc4)ccc3O[C@H]2[C@H](CO)O1)NC1CCCCC1,1.01
16,COCC(=O)Nc1ccc2c(c1)CC(=O)N2C,1.08
17,COC(=O)c1ccc(C(=O)NN)cc1,0.867
18,O=C(C[C@@H]1C[C@H]2c3cc(NS(=O)(=O)c4ccc(F)cc4)ccc3O[C@H]2[C@H](CO)O1)NCc1cccc(F)c1,0.972
19,CCOC(=O)[C@H]1CSCCN1,0.982
20,O=C(C[C@H]1CC[C@@H](NC(=O)CN2CCOCC2)[C@@H](CO)O1)NCCc1ccccc1,1.16
21,CCCCCCNC(=O)n1cc(F)c(=O)[nH]c1=O,0.742
22,CC(Cc1cccc(C(F)(F)F)c1)NCCOC(=O)c1ccccc1.Cl (stereo not drawn),0.904

row,SMILES,relative growth
1,CCCNC(=O)Nc1ccc2c(c1)OC[C@H](C)N(Cc1ccc(-c3ccccn3)cc1)C[C@H](C)[C@H](OC)CN(C)C2=O,1.12
2,Cl.N=C(N)NC(=N)NCCc1ccccc1,0.934
3,CN(CCO)S(=O)(=O)c1ccc2c(c1)C(=NO)c1cc(S(=O)(=O)N(C)CCO)ccc1-2,1.03
4,CCCOc1ccccc1-c1nc2[nH]nnc2c(=O)[nH]1,1.01
5,CC(C)=CCC1=C(O)C(=O)c2ccccc2C1=O,0.861
6,COc1cccc(NC(=O)N[C@H]2C=C[C@@H](CC(=O)N3CCN(C)CC3)O[C@H]2CO)c1,1.03
7,C[C@@H]1CN([C@H](C)CO)C(=O)c2ccccc2-c2ccccc2CO[C@@H]1CN(C)C(=O)Nc1ccccc1C(F)(F)F,0.817
8,Clc1ccc(C(Cn2ccnc2)OCc2c(Cl)cccc2Cl)c(Cl)c1.O=[N+]([O-])O (stereo not drawn),0.924
9,COc1ccc(S(=O)(=O)N(C)C[C@@H]2Oc3c(NC(=O)Nc4cccc5ccccc45)cccc3C(=O)N([C@H](C)CO)C[C@H]2C)cc1,1.03
10,Nc1nc(=O)n([C@@H]2CS[C@H](CO)O2)cc1F,1.01
11,COc1ccc(Cl)cc1C(=O)NCCc1ccc(S(=O)(=O)NC(=O)NC2CCCCC2)cc1,0.927
12,O=C1CCC[C@H]2[C@@H]3CCC[N+]4([O-])CCC[C@H](CN12)[C@H]34 (stereo partly drawn),0.881
13,CSc1nc(=O)c(CCO)c(C)[nH]1,0.896
14,Cc1cccc(S(=O)(=O)N2C[C@H](O)COC[C@H]3O[C@H](CC(=O)NCCCN4CCOCC4)CC[C@@H]32)c1,0.805
15,COc1cccc(S(=O)(=O)N(C)C[C@@H]2Oc3cc(C#CCC(C)C)ccc3S(=O)(=O)N([C@H](C)CO)C[C@@H]2C)c1,1.33
16,CN1CCN(C(=O)C[C@@H]2CC[C@@H]3[C@H](COC[C@@H](O)CN3C(=O)Nc3cc(Cl)cc(Cl)c3)O2)CC1,0.823
17,COc1oc(C(=O)NC2CCCCC2)c(-c2ccc(Cl)cc2)c1S(=O)(=O)c1ccccc1NC(C)=O,0.898
18,NS(=O)(=O)c1ccc(F)c([N+](=O)[O-])c1,0.887
19,CC(=O)N1CCc2c(sc(N)c2C(N)=O)C1,1.16
20,COC1CC2CCC(C)C(O)(O2)C(=O)C(=O)N2CCCCC2C(=O)OC(C(C)CC2CCC(O)C(OC)C2)CC(=O)C(C)/C=C(\C)C(O)C(OC)C(=O)C(C)CC(C)/C=C/C=C/C=C/1C (stereo not drawn),1.02
21,Cl.N[C@@H](Cc1ccccc1)C(=O)O,0.888
22,O=C(CCCCCNC(=O)OC[C@]12N=C3SCC(=O)N3[C@H](c3ccccc3O1)[C@H]2COC(=O)c1ccccc1)NO,0.954

row,SMILES,relative growth
1,C[C@H]1CN([C@@H](C)CO)S(=O)(=O)c2ccc(C#CC3CC3)cc2O[C@H]1CN(C)Cc1ccc(F)cc1,1.08
2,COCC#Cc1ccc2c(c1)O[C@H](CN(C)S(C)(=O)=O)[C@@H](C)CN([C@@H](C)CO)S2(=O)=O,0.985
3,CN([C@@H](Cc1ccc(OS(=O)(=O)c2cccc3cnccc23)cc1)C(=O)N1CCN(c2ccccc2)CC1)S(=O)(=O)c1cccc2cnccc12,1.1
4,CC1=NN(c2ccc(C)c(C)c2)C(=O)/C1=N\Nc1cccc(-c2cccc(C(=O)O)c2)c1O,1.28
5,Cc1nnsc1-c1onc(C)c1C(N)=O,0.891
6,CC(C)N1C(=O)NC(=O)[C@@H]1CC(=O)O,1.12
7,CN(C)CCCCNC(=O)[C@@H]1C[C@@H]2C(=O)N[C@@H](CCCC[N+](C)(C)C)C(=O)N2[C@@H]1c1cccc(OCCO)c1,1.03
8,COCCCNC(=O)[C@]1(Cc2ccccc2N=[N+]=[N-])N=C(c2ccc(OCCCO)cc2)O[C@@H]1c1ccccc1,0.747
9,NCCCCCNC(=O)[C@@H]1C[C@@H]2C(=O)N[C@@H](Cc3ccccc3)C(=O)N2[C@@H]1c1cccc(OCCO)c1,1.11
10,O=c1cc(-c2ccccc2)oc2ccccc12,0.867
11,Cn1cnc(S(=O)(=O)N[C@@H]2CC[C@@H](CC(=O)Nc3ccccc3)O[C@H]2CO)c1,1
12,COc1cc(O)c2c(=O)c(OC)c(-c3ccc(OC)c(OC)c3)oc2c1,0.738
13,CN(C)Cc1cn(CC[C@@H]2CC[C@@H](NS(=O)(=O)c3ccccc3)[C@@H](CO)O2)nn1,1.07
14,COc1cc2c(cc1OC)-c1onc(-c3ccc(OCCO[Si](C(C)C)(C(C)C)C(C)C)cc3)c1CCCN(C[C@@H](C)OC(=O)NCCCCCC(=O)NO)CC2,0.821
15,Cn1cnc(S(=O)(=O)N2C[C@H](O)COC[C@H]3O[C@@H](CC(=O)NC4CCCC4)CC[C@@H]32)c1,1
16,Nc1ccn(C2O[C@H](CO)[C@@H](O)[C@@H]2O)c(=O)n1 (stereo partly drawn),1.09
17,C[C@@H]1[C@H]2[C@H](O[C@@H]3O[C@H](CO)[C@@H](O)[C@H](O)[C@H]3O)OC=C(C(=O)O)[C@H]2C[C@@H]1OC(=O)/C=C/c1ccc(O)cc1,0.979
18,NC(=O)CSc1ncn(-c2ccccc2)n1,0.977
19,CCO[C@H]1OC(C(N)=O)=C[C@@H](C)[C@@H]1CCCO,1.14
20,COC(=O)c1c(C)c2c(c(C)c1OC)OC(=O)c1c(C)c(Cl)c(OC)c(Cl)c1O2,1.09
21,CN1CC2(COC2)OCCS1(=O)=O,0.944
22,CN1CCN2c3ncccc3Cc3ccccc3C2C1 (stereo not drawn),0.894

row,SMILES,relative growth
1,NCCC(=O)N[C@@H](Cc1c[nH]cn1)C(=O)O,1.05
2,Cc1cc(C)nc(NS(=O)(=O)c2ccc(N)cc2)n1,1.3
3,Cc1ccc(S(=O)(=O)N(C)C[C@H]2Oc3ncc(Br)cc3C(=O)N([C@H](C)CO)C[C@@H]2C)cc1,0.832
4,Nc1nnc(CNC(=O)c2ccccc2)[nH]1,0.968
5,c1coc(CNc2nc[n+]3c4c2ncn4CC3)c1,1.02
6,CC(C)=CCc1c2c(c3occ(-c4ccc(O)c(O)c4)c(=O)c3c1O)C=CC(C)(C)O2,1.03
7,COc1cc(NS(=O)(=O)c2ccc(N)cc2)ncn1,1.08
8,C=CCC[C@@H](Cc1ccc(F)cc1)C(=O)O[C@H](CNC(=O)[C@H](CC=C)CC(=O)N(CCO)Cc1ccccc1)c1ccccc1,1.05
9,COC(=O)N/N=C/c1c[n+]([O-])c2ccccc2[n+]1[O-],0.128
10,O=C(C[C@@H]1CC[C@H]2[C@@H](COC[C@H](O)CN2C(=O)c2ccncc2)O1)NCc1ccc(-c2ccccc2)cc1,1.08
11,CC(C)(C)C(=O)Nc1c[nH]c(=O)[nH]c1=O,0.977
12,Cn1cnc(S(=O)(=O)N[C@@H]2CC[C@@H](CC(=O)N3CCN(c4ccccc4)CC3)O[C@@H]2CO)c1,1.05
13,Cc1ncc([N+](=O)[O-])cc1C(=O)O,0.813
14,O=S1(=O)C[C@H](NCc2cccnc2)[C@@H](O)C1,1.08
15,CN(C(=O)CN(CCO)CC(=O)N(C)C(C)(C)Cc1ccccc1)C(C)(C)Cc1ccccc1,0.434
16,O=C(C[C@@H]1CC=CCC[C@H](Cc2ccc(F)cc2)C(=O)OC[C@H](Cc2c[nH]c3ccccc23)NC1=O)N[C@@H](CO)Cc1ccccc1,1.24
17,CCOC(=O)Nc1nc2ccccc2[nH]1,0.806
18,Cc1ccccc1S(=O)(=O)N1C[C@H](O)COC[C@H]2O[C@@H](CC(=O)NCCc3ccccc3)CC[C@@H]21,0.984
19,C=CCC[C@@H](Cc1ccc(F)cc1)C(=O)OC[C@H]1CCCN1C(=O)[C@H](CC=C)CC(=O)N(CCO)Cc1ccccc1,0.903
20,COC1=CC(C)[C@@H]2C[C@H]3OC(=O)C[C@H]4C(C)=C(OC)C(=O)C([C@@]34C)[C@@]2(C)C1=O (stereo partly drawn),0.994
21,O=C(C[C@@H]1CC[C@H](NC(=O)C2CC2)[C@H](CO)O1)NCCCN1CCOCC1,1.04
22,C=CCC[C@H](Cc1ccc(F)cc1)C(=O)OC[C@@H](NC(=O)[C@H](CC=C)CC(=O)N(CCO)Cc1ccccc1)c1ccccc1,1.3
